Experimental data published in ChEMBL document CHEMBL1177649, “Synthesis and structure-affinity relationships of novel small molecule natural product derivatives capable of discriminating between serotonin 5-HT1A, 5-HT2A, 5-HT2C receptor subtypes” (Bioorg Med Chem, 2010).

Amino acid sequences for entries named in this document (tags omitted). A change or cut given only in a name is not applied to a line headed by its entry.
UniProt P08908, whole entry: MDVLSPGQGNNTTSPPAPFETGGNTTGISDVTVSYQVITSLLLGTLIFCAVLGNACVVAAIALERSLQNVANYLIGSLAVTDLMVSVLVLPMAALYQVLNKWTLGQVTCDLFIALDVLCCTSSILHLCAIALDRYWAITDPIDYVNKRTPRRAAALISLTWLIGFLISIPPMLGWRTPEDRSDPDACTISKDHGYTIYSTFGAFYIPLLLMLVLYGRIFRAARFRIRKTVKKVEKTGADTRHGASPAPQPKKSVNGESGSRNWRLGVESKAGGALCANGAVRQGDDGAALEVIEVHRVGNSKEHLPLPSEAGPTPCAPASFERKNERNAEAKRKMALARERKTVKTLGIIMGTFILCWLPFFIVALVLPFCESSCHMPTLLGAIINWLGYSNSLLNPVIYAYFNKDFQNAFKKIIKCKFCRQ
UniProt P28223, whole entry: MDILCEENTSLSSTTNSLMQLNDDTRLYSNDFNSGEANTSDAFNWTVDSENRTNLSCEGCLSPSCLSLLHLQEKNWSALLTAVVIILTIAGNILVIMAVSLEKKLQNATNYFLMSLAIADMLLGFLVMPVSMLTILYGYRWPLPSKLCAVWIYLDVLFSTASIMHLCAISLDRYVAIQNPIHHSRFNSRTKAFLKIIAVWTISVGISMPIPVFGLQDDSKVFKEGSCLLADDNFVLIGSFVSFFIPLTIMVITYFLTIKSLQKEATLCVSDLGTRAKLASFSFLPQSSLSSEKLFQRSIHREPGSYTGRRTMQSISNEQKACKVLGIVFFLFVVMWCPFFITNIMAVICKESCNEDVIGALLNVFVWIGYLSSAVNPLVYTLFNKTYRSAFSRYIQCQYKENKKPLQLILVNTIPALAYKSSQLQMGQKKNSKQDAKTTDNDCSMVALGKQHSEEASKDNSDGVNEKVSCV
UniProt P28335: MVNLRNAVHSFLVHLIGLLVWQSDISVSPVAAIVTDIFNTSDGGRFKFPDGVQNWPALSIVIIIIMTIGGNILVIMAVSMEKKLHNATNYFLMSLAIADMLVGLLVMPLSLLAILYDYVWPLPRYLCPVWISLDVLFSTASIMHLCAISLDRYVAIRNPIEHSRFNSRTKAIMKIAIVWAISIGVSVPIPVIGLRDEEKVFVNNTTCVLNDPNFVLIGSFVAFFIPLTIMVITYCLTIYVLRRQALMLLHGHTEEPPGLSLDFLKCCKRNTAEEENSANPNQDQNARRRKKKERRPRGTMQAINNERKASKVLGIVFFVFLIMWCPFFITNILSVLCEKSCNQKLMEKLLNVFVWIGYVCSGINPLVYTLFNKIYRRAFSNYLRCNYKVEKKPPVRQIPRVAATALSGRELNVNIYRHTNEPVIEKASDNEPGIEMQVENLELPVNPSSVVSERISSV

Columns and labels:
Type in all cases: cell-based
[1] = target: 5-hydroxytryptamine receptor 1A (Homo sapiens) (UniProt P08908); assay: Displacement of [3H]MPPF from human cloned 5HT1A receptor expressed in HEK293 cells at 3 uM after 90 mins by liquid scintillation counting
Summary of the method: (§1)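 Crude membranes from HEK293 cells stably expressing the receptor (G418 selection) in 50 mM Tris, pH 7.4. Radioligand targeted at ~500 pM. Compound added from a 3 mM DMSO stock diluted 1:1000. Nonspecific binding defined with 5 μM NAN-190 (5-HT1A) or 5 μM mianserin (5-HT2C). Incubated ≥90 min at 25°C, then filtered through PEI-soaked GF/C filters. Percent displacement of specific binding; triplicates, 3–4 experiments.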

[2] = target: 5-hydroxytryptamine receptor 2A (Homo sapiens, UniProt P28223); assay: Displacement of [3H]methylspiperone from human cloned 5HT2A receptor expressed in HEK293 cells at 3 uM after 90 mins by liquid scintillation counting
Summary of the method: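 Crude membranes from HEK293 cells stably expressing the receptor (calcium phosphate transfection, G418-selected clones), in 50 mM Tris pH 7.4. Single-point screen: 3 mM DMSO stock diluted 1:1000. Radioligand targeted at about 500 pM, nonspecific binding defined by 5 μM mianserin. Incubated at least 90 min at 25°C, then filtered on PEI-soaked GF/C filters and washed cold. Percent specific displacement, triplicates, 3–4 experiments.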

[3] = target: 5-hydroxytryptamine receptor 2C (Homo sapiens, UniProt P28335); assay: Displacement of [3H]mesulergine from human cloned 5HT2C receptor expressed in HEK293 cells at 3 uM after 90 mins by liquid scintillation counting; summary of the method: as §1

Q: With `CCN1C(=N)N(C)/C(=C\c2c[nH]c3ccccc23)C1=O` as the compound, how does the Activity [1] read?
A: 0%

Q: What about the Activity [2] of the same compound?
A: 50%

Q: And the Activity [3]?
A: 0%

Q: For `CCN1C(=N)N(C)/C(=C/c2c[nH]c3cc(F)ccc23)C1=O`, which Activity [1] is on record?
A: 0%

Q: And the Activity [2]?
A: 86%

Q: What about the Activity [3] of the same compound?
A: 0%

Q: Which results are given for `CN1C(=N)N(C)/C(=C/c2c[nH]c3ccccc23)C1=O` [APLYSINOPSIN]?
A: Activity [1]: 0%; Activity [2]: 47%; Activity [3]: 0%
